Conditions: PAMPA

NC(=O)N1c2ccccc2C=Cc2ccccc21 [Cz, Carbamazepine]
Permeability: 11 ± 1 ×10^−6 cm/s
